Assay: Solubility of various Prasugrel acid addition salts, determined according to European Pharmacopoeia 6.0, 5.11 (2008)
Description: As bioavailability depends, among others, on solubility, an optimal active substance for oral application should show a high solubility in a broad pH-range. […] Table 2: Solubility of various Prasugrel acid addition salts

Measured: Solubility

hydrogensulfate salt of 2-acetoxy-5-(α-cyclopropylcarbonyl-2-fluorobenzyl)-4,5,6,7-tetrahydrothieno[3,2-c]pyridine [Prasugrel hydrogensulfate]
freely soluble: Acetate buffer pH 4.5 | Hydrochloric acid medium pH 1.2 | water
